Experimental findings from patent US7842700B2, “Crystals of isopropyl ester of N-(2,6-dichlorobenzoyl)-4-[6-(methylamino)methyl-1-methyl-2,4-dioxo-1,4-dihydroquinazoline-3(2H)-yl]-L-phenylalanine hydrochloride, production method thereof and use thereof” (Ajinomoto Co., Inc., priority 2005, dated 2010) are described below.

This data set can be described thus: Pharmacokinetic study by intravenous administration to a rat. The note with it: single intravenous dose, 1 mg/mL solution at 1 mL/kg, Wistar rat, plasma.

Each structure is given as a SMILES string.

On to `Cn1c(=O)n(-c2ccc(C[C@H](NC(=O)c3c(Cl)cccc3Cl)C(=O)O)cc2)c(=O)c2ccccc21`, for which the “total body clearance (CLtot)” value is 1.89 L/h/kg.
